The values below come from patent US10683309B2, “Xanthine derivatives, their use as a medicament, and pharmaceutical preparations comprising the same” (MAX-DELBRÜCK-CENTRUM FÜR MOLEKULARE MEDIZIN, priority 2016, dated 2020).

The chains behind the UniProt entries cited, without tags or fusion partners. Where a name states a change or a piece, a line headed by the entry shows the natural chain unless it says otherwise.
UniProt P17752: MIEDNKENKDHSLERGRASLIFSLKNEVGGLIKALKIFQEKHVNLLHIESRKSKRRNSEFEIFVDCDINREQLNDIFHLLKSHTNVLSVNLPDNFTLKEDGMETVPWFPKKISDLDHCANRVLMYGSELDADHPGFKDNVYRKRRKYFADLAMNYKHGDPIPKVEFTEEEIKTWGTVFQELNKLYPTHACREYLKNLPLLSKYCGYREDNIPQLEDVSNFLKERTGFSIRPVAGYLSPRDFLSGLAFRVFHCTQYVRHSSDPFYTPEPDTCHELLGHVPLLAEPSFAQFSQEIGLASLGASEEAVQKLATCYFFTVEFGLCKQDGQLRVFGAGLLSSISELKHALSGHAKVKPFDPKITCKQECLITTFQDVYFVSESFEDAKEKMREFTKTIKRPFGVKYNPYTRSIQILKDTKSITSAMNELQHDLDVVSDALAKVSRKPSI

As a reminder, the IC50 is the concentration needed to halve the response being measured.

For this assay, the target named is recombinant human TPH1 (Swiss-Prot: P17752) (Homo sapiens (Human), UniProt P17752). Kind of assay: In vitro enzyme activity assay, fluorescence-based, TPH1 inhibition. The conditions noted are these: read-out: IC50 TPH1 (μM) mean; recombinant human TPH1, 40 μM tryptophan, pH 7.0, mean of sample triplicates.
For `CCn1c(=O)[nH]c(=O)c2c1nc(Cc1cn3c(n1)CCCC3)n2Cc1ccc(NC(C)=O)cc1` [Ex. 35, N-(4-((3-ethyl-2,6-dioxo-8-((5,6,7,8-tetrahydroimidazo[1,2-a]pyridin-2-yl)methyl)-1,2,3,6-tetrahydro-7H-purin-7-yl)methyl)phenyl)acetamide], the IC50 is 0.286 µM.

Take `CCn1c(=O)[nH]c(=O)c2c1nc(Cc1cn3c(n1)CCCC3)n2Cc1ccc(N2CCCC2=O)cc1` [Ex. 36, 3-ethyl-7-(4-(2-oxopyrrolidin-1-yl)benzyl)-8-((5,6,7,8-tetrahydroimidazo[1,2-a]pyridin-2-yl)methyl)-3,7-dihydro-1H-purine-2,6-dione]: the half-inhibitory concentration (IC50) is 0.247 µM.

As for `CCn1c(=O)[nH]c(=O)c2c1nc(Cc1cn3c(n1)CCCC3)n2Cc1ccc(N2CC(F)(F)C2)cc1` [Ex. 37, 7-(4-(3,3-difluoroazetidin-1-yl)benzyl)-3-ethyl-8-((5,6,7,8-tetrahydroimidazo[1,2-a]pyridin-2-yl)methyl)-3,7-dihydro-1H-purine-2,6-dione], the IC50 is 0.273 µM.

`CCn1c(=O)[nH]c(=O)c2c1nc(Cc1cn3c(n1)CCCC3)n2Cc1ccc(N2CC(OC)C2)cc1` [Ex. 38, 3-ethyl-7-(4-(3-methoxyazetidin-1-yl)benzyl)-8-((5,6,7,8-tetrahydroimidazo[1,2-a]pyridin-2-yl)methyl)-3,7-dihydro-1H-purine-2,6-dione]: the IC50 is 0.22 µM.

`CCn1c(=O)[nH]c(=O)c2c1nc(Cc1cn3c(n1)CCCC3)n2Cc1ccc(-c2noc(C)n2)cc1` [Ex. 39, 3-ethyl-7-(4-(5-methyl-1,2,4-oxadiazol-3-yl)benzyl)-8-((5,6,7,8-tetrahydroimidazo[1,2-a]pyridin-2-yl)methyl)-3,7-dihydro-1H-purine-26-dione]: the IC50 worked out at 0.179 µM.
